Measured affinities in a library of Ab-14 heavy chain variants

All variants were tested on one target, the spike HR2 peptide PDVDLGDISGINAS (SARS-CoV-2).

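In library AAYL49, one, two or three CDR residues were substituted; doubles and triples were drawn at random. AlphaSeq pools MATa yeast showing the antibodies with MATalpha yeast showing the peptide. Mating (16 h, 30 °C) was followed by selection of diploids and sequencing of their barcodes. Read counts were normalised to the haploid input and turned into Kd by a linear fit to BCL2-family pairs of known affinity, for each replicate. The assay was run in three technical replicates.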

Ab-14 is the parent antibody, in scFv form: VH, then a 15-residue (Gly4Ser)3 linker, then VL. The light chain is unchanged in all variants.
VH: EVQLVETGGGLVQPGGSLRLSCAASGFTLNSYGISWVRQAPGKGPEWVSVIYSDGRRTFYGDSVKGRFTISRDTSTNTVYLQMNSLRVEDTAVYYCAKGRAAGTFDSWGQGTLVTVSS
VL: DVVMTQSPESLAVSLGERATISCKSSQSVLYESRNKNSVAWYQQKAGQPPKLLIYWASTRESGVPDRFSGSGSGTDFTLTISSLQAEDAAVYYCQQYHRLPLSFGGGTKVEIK

Substitutions are numbered in sequence along the VH above, starting at 1 (not Kabat). Scale: log10 of Kd in nM, estimated from mating counts; low values are strong binders. Replicates are averaged; those with no signal do not enter the mean. A pair that was not seen in any replicate is written "nd"; this usually means weak binding, but a binder can also be missed. Nonspecific signal, from three strains lacking the peptide, appeared in 15% of pairings of library AAYL49, centred on 4.06 (5% of these signals below 2.83); values are not corrected for it. The control count says in how many pairings with the empty strains this scFv gave a signal.

G33Q R56C G103M: nd (0 of 3 replicates; controls 0 of 9).
S31Y R56T G99K: 1.02 (3 of 3 replicates; controls 0 of 9).
F27K L29W D54S: nd (0 of 3 replicates; controls 0 of 9).
S53R R57I S107N: nd (0 of 3 replicates; controls 1 of 9).
S35M S63E D106C: nd (0 of 3 replicates; controls 1 of 9).
S31N Y32V A102D: 2.51 (3 of 3 replicates; controls 3 of 9).
Y52C G55R: 5.86 (1 of 3 replicates; controls 4 of 9).
S53K Y60G G61N: nd (0 of 3 replicates; controls 1 of 9).
N30R Y52F: 2.07 (3 of 3 replicates; controls 1 of 9).
F27S T28N R56L: 2.28 (3 of 3 replicates; controls 0 of 9).
R56A S63L: 3.04 (3 of 3 replicates; controls 2 of 9).
N30V A101M S107M: 1.97 (3 of 3 replicates; controls 2 of 9).
F27R V64Y K65A: nd (0 of 3 replicates; controls 2 of 9).
R56H T104G F105C: nd (0 of 3 replicates; controls 0 of 9).
I34P G61T V64T: 5.20 (1 of 3 replicates; controls 2 of 9).
G26C L29D R100K: nd (0 of 3 replicates; controls 0 of 9).
G26A Y32E D106H: nd (0 of 3 replicates; controls 1 of 9).
I34S Y52L S63H: nd (0 of 3 replicates; controls 0 of 9).
G26E T58V S63L: 4.44 (3 of 3 replicates; controls 2 of 9).
F59L A102D S107N: 3.11 (1 of 3 replicates; controls 2 of 9).
R57G F59V G99Y: 4.93 (1 of 3 replicates; controls 1 of 9).
I51D G61D A101I: 5.26 (1 of 3 replicates; controls 1 of 9).
I51L D62S K65W: 2.95 (3 of 3 replicates; controls 0 of 9).
G26S A101N A102F: nd (0 of 3 replicates; controls 2 of 9).
S35W R57H F105M: 4.15 (1 of 3 replicates; controls 1 of 9).
A102Y G103Q: 2.98 (3 of 3 replicates; controls 6 of 9).
G99E R100G F105H: 4.62 (2 of 3 replicates; controls 2 of 9).
G33N G61A F105H: 5.22 (3 of 3 replicates; controls 7 of 9).
Y52E V64E R100S: 4.49 (1 of 3 replicates; controls 0 of 9).
G61I A101Q F105L: 0.88 (3 of 3 replicates; controls 2 of 9).
T58C R100D A102Y: nd (0 of 3 replicates; controls 0 of 9).
G26W N30I A101L: 2.36 (3 of 3 replicates; controls 1 of 9).
G55R V64C F105W: 3.34 (1 of 3 replicates; controls 1 of 9).
T28L Y60S K65P: nd (0 of 3 replicates; controls 0 of 9).
N30G S35V D54V: nd (0 of 3 replicates; controls 0 of 9).
Y52M F59N S107E: 3.96 (2 of 3 replicates; controls 0 of 9).
V50Q A101I: nd (0 of 3 replicates; controls 2 of 9).
I51M R100W G103N: nd (0 of 3 replicates; controls 0 of 9).
G33V F59H G103W: 5.20 (2 of 3 replicates; controls 5 of 9).
I51T R100W A101E: 3.19 (1 of 3 replicates; controls 5 of 9).
L29V A101R A102E: 4.62 (3 of 3 replicates; controls 8 of 9).
G26I T28W D106H: 3.71 (1 of 3 replicates; controls 0 of 9).
N30H D62R V64L: nd (0 of 3 replicates; controls 1 of 9).
T28V S31A R57W: 4.12 (2 of 3 replicates; controls 1 of 9).
D62L R100N A101F: 4.52 (3 of 3 replicates; controls 5 of 9).
S31D S35M Y52I: 5.03 (2 of 3 replicates; controls 2 of 9).
T28Q T58D F105E: nd (0 of 3 replicates; controls 0 of 9).

Again, the first 7 entries without any signal:

For G33Q R56C G103M, the assay gave nd (0 of 3 replicates; controls 0 of 9).
For F27K L29W D54S, the assay gave nd (0 of 3 replicates; controls 0 of 9).
For S53R R57I S107N, the assay gave nd (0 of 3 replicates; controls 1 of 9).
For S35M S63E D106C, the assay gave nd (0 of 3 replicates; controls 1 of 9).
For S53K Y60G G61N, the assay gave nd (0 of 3 replicates; controls 1 of 9).
For F27R V64Y K65A, the assay gave nd (0 of 3 replicates; controls 2 of 9).
For R56H T104G F105C, the assay gave nd (0 of 3 replicates; controls 0 of 9).

Source: Engelhart et al. 2022 (doi:10.1038/s41597-022-01779-4), MIT Lincoln Laboratory and A-Alpha Bio; data file from the FLAb repository.